# Apparent affinities of Ab-91 variants for a coronavirus HR2 peptide

All variants were tested on one target, the spike HR2 peptide PDVDLGDISGINAS (SARS-CoV-2).

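The starting antibody came from a phage panning campaign against this peptide. The library (AAYL51) carries one to three amino acid substitutions per variant, with no insertions or deletions. The assay is AlphaSeq: two haploid yeast populations carry antibody and antigen on their surface. Pairs that bind mate more often; barcode pairs of the diploids are counted by sequencing. The ratio of observed to expected reads was calibrated, replicate by replicate, on BCL2-family standards whose Kd was known from biolayer interferometry. The assay was run in three technical replicates.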

The variants keep the light chain, the linker and the frameworks of Ab-91 (scFv order VL, the linker GGGGSGGGGSGGGGS, VH).
VL: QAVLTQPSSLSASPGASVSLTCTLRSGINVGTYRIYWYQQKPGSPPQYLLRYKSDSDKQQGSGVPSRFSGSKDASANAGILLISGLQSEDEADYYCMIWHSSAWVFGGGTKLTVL
VH: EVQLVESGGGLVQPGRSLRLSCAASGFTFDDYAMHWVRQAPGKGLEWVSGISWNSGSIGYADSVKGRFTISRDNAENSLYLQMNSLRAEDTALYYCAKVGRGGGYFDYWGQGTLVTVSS

Substitutions are numbered in sequence along the VH above, starting at 1 (not Kabat). The read-out is the apparent dissociation constant on a log10 scale (nM): the lower, the stronger. Averages over replicates are reported, and they cover detected replicates only. "nd" marks a missing value. The strain was present, yet no cells mated with the target were sequenced in that replicate, which points to weak or no binding. As a blank, each scFv also met three strains without target: over library AAYL51, 21% of these pairings were detected, typically at 4.54 and seldom below 3.26.

changes | log10 Kd, replicates | mean log10 Kd (nM)
F27C/I51G/S63W | 5.48 5.48 nd | 5.48
G56A/S57A/Y108L | 0.99 0.96 0.22 | 0.72
Y32C/V99L | 3.50 nd nd | 3.50
T28V/M34N/S55C | nd nd nd | nd
G56K/D62S | 2.72 2.52 2.61 | 2.61
M34T/H35P/W53Y | nd nd nd | nd
S52G/S55K | 2.16 1.89 2.23 | 2.10
D31E/A33F | nd nd nd | nd
F29D/G102M/F106D | 3.89 nd nd | 3.89
F27P/T28G/V64P | nd nd nd | nd
A33S/S52I | nd nd nd | nd
I51N/G100P/F106G | nd nd nd | nd
F29W/W53S/S63V | 4.73 nd nd | 4.73
T28Y/N54M/S57R | nd nd nd | nd
M34R/S63M/Y105N | nd nd nd | nd
F29Q/S55I | nd nd nd | nd
T28M/S55L/R101Q | nd 3.13 nd | 3.13
G50T/W53M/S55G | 5.09 nd nd | 5.09
I51M/S57K/I58F | nd nd nd | nd
G59N/G103N/D107A | 3.87 4.66 5.02 | 4.52

Continued, with the values leading:

log10 Kd, replicates | mean log10 Kd (nM) | changes
nd 5.47 nd | 5.47 | G59H/Y60M/R101Q
nd 4.34 nd | 4.34 | N54A/G59F/G104R
nd nd nd | nd | G26P/Y32L/G102Q
nd nd nd | nd | H35L/I58A/Y60W
nd nd nd | nd | S55W/G56A/D62A
5.39 nd nd | 5.39 | M34N/S57W/D107R
nd nd nd | nd | F29E/G56W/K65S
nd nd 3.91 | 3.91 | D30R/M34K/D62V
nd nd nd | nd | M34S/G103C/G104P
1.57 1.21 1.18 | 1.32 | G26L/Y32R/A33M
nd nd nd | nd | F27D/S63G/G103Y
0.28 0.69 -0.11 | 0.29 | D30Q/Y60E
nd nd nd | nd | H35S/S52H/S63I
nd nd nd | nd | S52Q/G59A
nd nd nd | nd | F27D/V64Q/K65E
nd nd nd | nd | G50M/D62K/Y108Q
nd nd nd | nd | D30E/H35M/A61F
nd nd nd | nd | K65N/G100A/R101M
nd 5.33 nd | 5.33 | M34K/I51K/D107N
4.39 6.82 5.29 | 5.50 | Y32N/S55K/D62E
5.06 nd 5.10 | 5.08 | S52N/W53Q/G104A

The closing 6 entries, repeated:

changes	log10 Kd, replicates	mean log10 Kd (nM)
G50M/D62K/Y108Q	nd nd nd	nd
D30E/H35M/A61F	nd nd nd	nd
K65N/G100A/R101M	nd nd nd	nd
M34K/I51K/D107N	nd 5.33 nd	5.33
Y32N/S55K/D62E	4.39 6.82 5.29	5.50
S52N/W53Q/G104A	5.06 nd 5.10	5.08

In this assay the parent's reference entry averaged 1.86; its copy inside this library read 0.88.

Reference: Engelhart et al. 2022, doi:10.1038/s41597-022-01779-4. File: FLAb, binding data.